Reference: patent US9138659B2, “Compositions, methods, and systems relating to controlled crystallization and/or nucleation of molecular species” (Massachusetts Institute of Technology, priority 2010, dated 2015)

What was measured:
[1] = CBZ nucleation induction time and polymorphic outcome with PEGMDA microgels in ethanol; type: physicochemical
Description: Results and Discussion: Monodispersed cubelike PEGMDA microgels (FIG. 27 left), with M ranging from 130 to 700 g/mol were synthesized by Stop-Flow Lithography, The mesh sizes vary from 0.7 to 1.5 nm in solvent ethanol (Table 9), estimated from equilibrium swelling by the Flory-Rehner theory. The accuracy of this method for obtaining mesh sizes has been confirmed with Small-Angle Neutron Scattering in a different solvent. The microgels were utilized for controlling polymorph crystallization by suspending ˜10 μg of microgels per 1 ml solution by stiffing. Such a low microgel concentration may be sufficient to effect drastic change in the crystallization behavior (discussed later), underscoring the effectiveness of polymer microgels in controlling crystallization. In all crystallization experiments, supersaturation of the solution was generated by cooling instead of solvent evaporation, despite its popularity in numerous polymorph studies, to yield better control over the crystallization process. […]
Accompanying the impact on CBZ polymorphic outcomes is the ability of the microgels in altering the CBZ nucleation kinetics, characterized by the average nucleation induction time τ (Table 9). Induction time was measured by monitoring IR transmission signal passing through a solution in controlled temperature environment and stirring condition. […]

[2] = Partition coefficients of CBZ and ROY in PEGMDA microgels from ethanol solutions; type: physicochemical; settings: PEGMDA gels

reduction of CBZ average induction time relative to bulk samples ([1]; microgels of higher M): at least an order of magnitude
shortening of CBZ average induction time relative to bulk samples ([1]; microgels with M=130 and 200 g/mol): 2-3 fold
CBZ concentration in the polymer gel relative to the bulk [2]: 3-4 times
Structure (SMILES): NC(=O)N1c2ccccc2C=Cc2ccccc21 [CBZ, carbamazepine]
